Read-outs that look alike come from different tables or passages of the source.
Assays:
[1] = biological target: T1, CRF2R (Homo sapiens, UniProt Q13324); experiment: CRF2R agonist activity (EC50 and Emax), called comparative CRF binding; assay type: cell-based; conditions: CRF2R
T1 sequence (Q13324 1-411): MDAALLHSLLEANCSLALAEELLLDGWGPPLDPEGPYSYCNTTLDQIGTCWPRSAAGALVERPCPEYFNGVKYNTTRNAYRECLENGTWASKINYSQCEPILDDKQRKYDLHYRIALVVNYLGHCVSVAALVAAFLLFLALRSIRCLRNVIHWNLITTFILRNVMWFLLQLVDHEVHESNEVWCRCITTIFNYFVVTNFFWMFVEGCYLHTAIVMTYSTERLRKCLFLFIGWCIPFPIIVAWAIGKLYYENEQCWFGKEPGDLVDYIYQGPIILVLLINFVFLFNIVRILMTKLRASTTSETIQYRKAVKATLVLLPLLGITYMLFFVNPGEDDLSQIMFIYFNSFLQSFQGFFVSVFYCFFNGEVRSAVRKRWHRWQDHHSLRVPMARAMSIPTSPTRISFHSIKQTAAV
Source text: (§1) The pharmacological activity and selectivity of the peptides of present invention can be determined using published test procedures. See, e.g, U.S. patent application Ser. No. 09/799,978. Because CRF2R and CRF1R are homologous proteins, it is expected that a certain proportion of agonists for CRF2R will also function as agonists of CRF1R. As discussed above, activation of CRF1R induces activation of the HPA axis since increased corticosteroid production leads to skeletal muscle atrophy. In most cases in which an increase in muscle mass or function is desired, it is not desirable to activate the HPA axis.
(§2) Because it is desirable to discriminate binding between CRF2R, as compared with CRF1R, the assays described above may be conducted using a cell, or membrane from a cell, which expresses only CRF2R or the assays can be conducted with a recombinant source of CRF2R. Cells expressing both forms of CRFR may be modified using homologous recombination to inactivate or otherwise disable the CRF1R gene. Alternatively, if the source of CRFR contains more than one CRFR type, the background signal produced by the receptor which is not of interest must be subtracted from the signal obtained in the assay. […] Known antagonists of CRFRs include, but are not limited to, antalarmin (CRF1R selective), antisauvagine-30 (CRF2R selective) and astressin (nonselective for CRF1R/CRF2R).
(§3) Cell-based assays include the steps of contacting cells which express CRF1R or CRF2R with a peptide of the present invention or control and measuring activation of the CRFR by measuring the expression or activity of components of the CRFR signal transduction pathways.
(§4) For example, after contact with a peptide of the present invention, lysates of the cells can be prepared and assayed for induction of cAMP. cAMP is induced in response to Gαs activation. Because Gαs is activated by receptors other than CRFR and because a test peptide may be exerting its effect through CRFRs or by another mechanism, two control comparisons are relevant for determining whether the peptide increases levels of cAMP via activation of a CRFR. One control compares the cAMP level of cells contacted with the peptide and the cAMP level of cells contacted with a control compound (i.e., the vehicle in which the peptide is dissolved).
(§5) In one example, cAMP induction is measured with the use of DNA constructs containing the cAMP responsive element linked to any of a variety of reporter genes can be introduced into cells expressing CRFRs. Such reporter genes include, but are not limited to, chloramphenicol acetyltransferase (CAT), luciferase, glucuronide synthetase, growth hormone, fluorescent proteins (e.g., Green Fluorescent Protein), or alkaline phosphatase. Following exposure of the cells to the peptide, the level of reporter gene expression can be quantitated to determine the peptide's ability to increase cAMP levels and thus determine the peptide's ability to activate the CRFR.
(§6) In addition to using cells expressing full length CRFRs, cells can be engineered which express CRFRs containing the ligand binding domain of the receptor coupled to, or physically modified to contain, reporter elements or to interact with signaling proteins. For example, a wild type CRFR or CRFR fragment can be fused to a G-protein resulting in activation of the fused G-protein upon agonist binding to the CRFR portion of the fusion protein. […] In addition, alternative pathways for induction of the CRE reporter could be eliminated to reduce basal levels.

[2] = biological target: T2, CRF1R (Homo sapiens, UniProt P34998); experiment: CRF1R agonist activity (EC50 and Emax), called comparative CRF binding; assay type: cell-based; conditions: CRF1R
T2 sequence (P34998 24-415): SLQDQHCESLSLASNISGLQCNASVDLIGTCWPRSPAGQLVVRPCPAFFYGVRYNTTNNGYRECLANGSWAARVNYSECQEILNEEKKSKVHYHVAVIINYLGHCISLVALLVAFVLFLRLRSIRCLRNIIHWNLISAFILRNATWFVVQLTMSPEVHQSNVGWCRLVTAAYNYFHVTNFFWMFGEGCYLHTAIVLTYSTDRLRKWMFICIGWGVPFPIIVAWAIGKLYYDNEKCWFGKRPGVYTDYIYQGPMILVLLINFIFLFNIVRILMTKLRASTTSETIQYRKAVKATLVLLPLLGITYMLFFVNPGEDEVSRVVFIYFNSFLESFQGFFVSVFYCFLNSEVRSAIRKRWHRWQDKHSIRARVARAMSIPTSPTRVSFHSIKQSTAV
Source text: as §1, §2, §3, §4, §5, §6

Row | Structure (SMILES) | EC50 ([1]; read-out: CRF2R EC50) | EC50 ([2]; read-out: CRF1R EC50) | EC50 ([1]; CRF2R EC50 (nM)) | EC50 ([2]; CRF1R EC50 (nM))
1 | CC[C@H](C)[C@H](N)C(=O)N[C@H](C(=O)N[C@@H](CC(C)C)C(=O)N[C@@H](CO)C(=O)N[C@@H](CC(C)C)C(=O)N[C@@H](CC(=O)O)C(=O)N[C@H](C(=O)N1CCC[C@H]1C(=O)N[C@H](C(=O)NCC(=O)N[C@@H](CC(C)C)C(=O)N[C@@H](CC(C)C)C(=O)N[C@@H](CCC(N)=O)C(=O)N[C@H](C(=O)N[C@@H](CC(C)C)C(=O)N[C@@H](CC(C)C)C(=O)N[C@@H](CCC(=O)O)C(=O)N[C@@H](CCC(N)=O)C(=O)N[C@@H](C)C(=O)N[C@@H](CCCNC(=N)N)C(=O)N[C@@H](C)C(=O)N[C@@H](CCCNC(=N)N)C(=O)N[C@@H](C)C(=O)N[C@@H](C)C(=O)N[C@@H](CCCNC(=N)N)C(=O)N[C@@H](CCC(=O)O)C(=O)N[C@@H](CCC(N)=O)C(=O)N[C@@H](C)C(=O)N[C@H](C(=O)N[C@H](C(=O)N[C@@H](CC(N)=O)C(=O)N[C@@H](C)C(=O)N[C@@H](CCCNC(=N)N)C(=O)N[C@H](C(=O)N[C@@H](CC(C)C)C(=O)N[C@@H](C)C(=O)N[C@@H](CCCNC(=N)N)C(=O)N[C@H](C(N)=O)C(C)C)[C@@H](C)CC)[C@@H](C)O)[C@@H](C)O)[C@@H](C)CC)[C@@H](C)CC)C(C)C)C(C)C [compound 354] | 6.48 nM | ≥ 1000 nM |  | 
2 | CC[C@H](C)[C@H](NC(=O)[C@@H](NC(=O)[C@H](CC(=O)O)NC(=O)[C@H](CC(C)C)NC(=O)[C@H](CC(C)C)NC(=O)[C@H](CC(C)C)NC(=O)[C@H](CCCNC(=N)N)NC(=O)[C@H](CC(N)=O)NC(=O)[C@H](CC(N)=O)NC(=O)[C@H](C)NC(=O)[C@H](C)NC(=O)[C@H](CCC(N)=O)NC(=O)[C@H](CCC(N)=O)NC(=O)[C@H](CCCCN)NC(=O)[C@H](CCC(=O)O)NC(=O)[C@H](CCCCN)NC(=O)[C@H](CCC(=O)O)NC(=O)[C@H](CCC(N)=O)NC(=O)[C@H](CCCCN)NC(=O)[C@H](CCC(=O)O)NC(=O)[C@@H](NC(=O)[C@H](CCC(=O)O)NC(=O)[C@@H](NC(=O)[C@H](CCSC)NC(=O)[C@H](CCCCN)NC(=O)[C@H](CCCNC(=N)N)NC(=O)[C@H](CC(C)C)NC(=O)[C@H](CC(C)C)NC(=O)[C@H](CCC(N)=O)NC(=O)[C@H](C)NC(=O)[C@@H]1CCCN1C(=O)[C@H](CC(C)C)NC(=O)[C@H](CC(=O)O)NC(=O)[C@@H](NC(=O)[C@H](CO)NC(=O)[C@@H](NC(=O)[C@@H]1CCCN1C(=O)[C@@H]1CCCN1C(=O)CNC(=O)[C@@H]1CCC(=O)N1)[C@@H](C)CC)[C@@H](C)CC)[C@@H](C)CC)[C@@H](C)CC)[C@@H](C)O)C(N)=O [compound 211] |  |  | 59.5 nM | 826 nM
3 | CC[C@H](C)[C@H](NC(=O)[C@H](CCC(=O)O)NC(=O)[C@@H](NC(=O)[C@H](CCSC)NC(=O)[C@H](CCCCN)NC(=O)[C@H](CCCNC(=N)N)NC(=O)[C@H](CC(C)C)NC(=O)[C@H](CC(C)C)NC(=O)[C@H](Cc1c[nH]cn1)NC(=O)[C@H](CC(C)C)NC(=O)[C@@H]1CCCN1C(=O)[C@H](CC(C)C)NC(=O)[C@H](CC(=O)O)NC(=O)[C@@H](NC(=O)[C@H](CO)NC(=O)[C@@H](NC(=O)[C@@H]1CCCN1C(=O)[C@@H]1CCCN1C(=O)CNC(=O)[C@@H]1CCC(=O)N1)[C@@H](C)CC)[C@@H](C)CC)[C@@H](C)CC)C(=O)N[C@@H](CCC(=O)O)C(=O)N[C@@H](CCCCN)C(=O)N[C@@H](CCC(N)=O)C(=O)N[C@@H](CCC(=O)O)C(=O)N[C@@H](CCCCN)C(=O)N[C@@H](CCC(=O)O)C(=O)N[C@@H](CCCCN)C(=O)N[C@@H](CCC(N)=O)C(=O)N[C@@H](CCC(N)=O)C(=O)N[C@@H](C)C(=O)N[C@H](C(=O)N[C@H](C(=O)N[C@@H](CC(N)=O)C(=O)N[C@@H](C)C(=O)N[C@@H](CCCNC(=N)N)C(=O)N[C@@H](CC(C)C)C(=O)N[C@@H](CC(C)C)C(=O)N[C@@H](CC(=O)O)C(=O)N[C@H](C(=O)N[C@H](C(N)=O)C(C)C)[C@@H](C)O)[C@@H](C)O)[C@@H](C)O [compound 238] |  |  | 16.7 nM | 753 nM
4 | CC[C@H](C)[C@H](NC(=O)[C@@H](NC(=O)[C@H](CC(=O)O)NC(=O)[C@H](CC(C)C)NC(=O)[C@H](CC(C)C)NC(=O)[C@H](CC(C)C)NC(=O)[C@H](C)NC(=O)[C@H](CC(N)=O)NC(=O)[C@H](CC(N)=O)NC(=O)[C@H](C)NC(=O)[C@H](C)NC(=O)[C@H](CCC(N)=O)NC(=O)[C@H](CCC(N)=O)NC(=O)[C@H](CCCCN)NC(=O)[C@H](CCC(=O)O)NC(=O)[C@H](CCCCN)NC(=O)[C@H](CCC(=O)O)NC(=O)[C@H](CCC(N)=O)NC(=O)[C@H](CCCCN)NC(=O)[C@H](CCC(=O)O)NC(=O)[C@@H](NC(=O)[C@H](CCC(=O)O)NC(=O)[C@@H](NC(=O)[C@H](CCSC)NC(=O)[C@H](CCCCN)NC(=O)[C@H](CCCNC(=N)N)NC(=O)[C@H](CC(C)C)NC(=O)[C@H](CC(C)C)NC(=O)[C@H](Cc1c[nH]c2ccccc12)NC(=O)[C@H](Cc1ccc(O)cc1)NC(=O)[C@@H]1CCCN1C(=O)[C@H](CC(C)C)NC(=O)[C@H](CC(=O)O)NC(=O)[C@@H](NC(=O)[C@H](CO)NC(=O)[C@@H](NC(=O)[C@@H]1CCCN1C(=O)[C@@H]1CCCN1C(=O)CNC(=O)[C@@H]1CCC(=O)N1)[C@@H](C)CC)[C@@H](C)CC)[C@@H](C)CC)[C@@H](C)CC)[C@@H](C)O)C(N)=O [compound 310] |  |  | 8.7 nM | ≥ 1000 nM
5 | CC[C@H](C)[C@H](NC(=O)[C@H](CCCNC(=N)N)NC(=O)[C@H](C)NC(=O)[C@H](CC(C)C)NC(=O)[C@H](CC(C)C)NC(=O)[C@H](CCCNC(=N)N)NC(=O)[C@H](C)NC(=O)[C@H](CC(N)=O)NC(=O)[C@H](CC(N)=O)NC(=O)[C@H](C)NC(=O)[C@H](C)NC(=O)[C@H](CCC(N)=O)NC(=O)[C@H](CCC(N)=O)NC(=O)[C@H](CCCCN)NC(=O)[C@H](CCC(=O)O)NC(=O)[C@H](CCCCN)NC(=O)[C@H](CCC(=O)O)NC(=O)[C@H](CCC(N)=O)NC(=O)[C@H](CCCCN)NC(=O)[C@H](CCC(=O)O)NC(=O)[C@@H](NC(=O)[C@H](CCC(=O)O)NC(=O)[C@@H](NC(=O)[C@@H](NC(=O)[C@H](CCCCN)NC(=O)[C@H](CCCNC(=N)N)NC(=O)[C@H](CC(C)C)NC(=O)[C@H](CC(C)C)NC(=O)[C@H](Cc1c[nH]c2ccccc12)NC(=O)[C@@H](NC(=O)[C@@H]1CCCN1C(=O)[C@H](CC(C)C)NC(=O)[C@H](CC(=O)O)NC(=O)[C@@H](NC(=O)[C@H](CO)NC(=O)[C@@H](NC(=O)[C@@H]1CCCN1C(=O)[C@@H]1CCCN1C(=O)CNC(=O)[C@@H]1CCC(=O)N1)[C@@H](C)CC)[C@@H](C)CC)[C@@H](C)O)C(C)C)[C@@H](C)CC)[C@@H](C)CC)C(N)=O [compound 291] |  |  | ≥ 100 nM | ≥ 1000 nM

Reference: patent US7632933B2, “Corticotropin releasing factor 2 receptor agonists” (priority 2002, dated 2009)
